{
  "sequences": {"note": "Protein sequences, listed by entry. Tags and fused reporters are not part of them.", "UniProt P49137, whole entry": "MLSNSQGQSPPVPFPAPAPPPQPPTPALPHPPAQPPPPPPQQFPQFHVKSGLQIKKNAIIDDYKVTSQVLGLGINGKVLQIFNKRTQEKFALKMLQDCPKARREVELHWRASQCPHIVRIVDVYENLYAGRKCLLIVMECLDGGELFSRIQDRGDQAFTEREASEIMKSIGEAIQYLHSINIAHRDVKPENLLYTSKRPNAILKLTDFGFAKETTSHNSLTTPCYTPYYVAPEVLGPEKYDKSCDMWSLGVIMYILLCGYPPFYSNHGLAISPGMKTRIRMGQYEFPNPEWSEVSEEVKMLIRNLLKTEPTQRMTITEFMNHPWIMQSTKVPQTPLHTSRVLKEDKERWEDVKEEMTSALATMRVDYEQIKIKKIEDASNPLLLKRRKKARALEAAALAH"},
  "source": "patent US20230255979A1",
  "about": "“METHODS OF TREATING ACUTE RESPIRATORY DISORDERS” (Bristol-Myers Squibb Company, priority 2020, published 2023)",
  "molecular_target": "MK2 (Homo sapiens, UniProt P49137)",
  "settings": "healthy volunteers, oral QD 14 days, 10-150 mg cohorts; FIG. 7",
  "data": [
    {"compound": "CCOCc1cnc(Cl)nc1Oc1ccc2c(ccc3sc4c(c32)NC[C@@H](C)NC4=O)n1", "note": "[Compound I-82]", "values": [
      {"measurement": "target engagement (change in percent bound MK2 from baseline)", "value": "dose-dependent target engagement"}
    ]}
  ]
}
